{"source": "patent US20240238300A1", "about": "“TREATMENT METHODS FOR SUBJECTS WITH CANCER HAVING AN ABERRATION IN EGFR AND/OR HER2” (TAIHO PHARMACEUTICAL CO., LTD., priority 2021, published 2024)", "system": "NCI-N87 xenografts relapsed from T-DM1", "settings": "Step II Day 22; 10 mg/kg/day iv Day 1", "procedure": "Male nude mice (BALB/cAJ1-mu/mu) were implanted with NCI-N87 human gastric carcinoma (HER2 overexpressing); 1.0×10^7 cells in 100 μL of PBS were implanted subcutaneously per mouse.\nThe tumor volumes (TV, mm^3) and body weights of the mice were recorded.", "data": [{"substance": "trastuzumab emtansine [T-DM1]", "values": [{"measurement": "Number of Death", "value": 0}]}]}
